Assay results reported in patent publication US10774053B2, “HIV protease inhibitors” (Gilead Sciences, Inc., priority 2017, dated 2020).

Tests used:
recombinant HIV protease = recombinant HIV protease (Human immunodeficiency virus type 1 group M subtype B (isolate HXB2) (HIV-1), UniProt P04585); type: biochemical; settings: fluorogenic enzymatic assay, read-out: HIV PI IC50
[1] = tested on: HIV-1 (IIIB) in MT-4 cells; test: microbe, parasite or virus in culture; type: cell-based; settings: Human immunodeficiency virus 1, IIIB, MT4, read-out: MT4 EC50 (nM)

Question: What does the source list for `CC(C)(C)C[C@]1(c2ccc(-c3cnn(C4COC4)c3)cc2)NC(=N)N([C@H](COC(=O)N2CC(F)(F)C2)c2ccc(Cl)c(-c3ncn[nH]3)c2)C1=O` [Compound 100]?
Answer: IC50 (recombinant HIV protease): 2.5 nM; EC50 [1]: 171 nM
